Sequences of proteins named here, by UniProt entry; tags and fusion partners are left off.
UniProt P30543, whole entry: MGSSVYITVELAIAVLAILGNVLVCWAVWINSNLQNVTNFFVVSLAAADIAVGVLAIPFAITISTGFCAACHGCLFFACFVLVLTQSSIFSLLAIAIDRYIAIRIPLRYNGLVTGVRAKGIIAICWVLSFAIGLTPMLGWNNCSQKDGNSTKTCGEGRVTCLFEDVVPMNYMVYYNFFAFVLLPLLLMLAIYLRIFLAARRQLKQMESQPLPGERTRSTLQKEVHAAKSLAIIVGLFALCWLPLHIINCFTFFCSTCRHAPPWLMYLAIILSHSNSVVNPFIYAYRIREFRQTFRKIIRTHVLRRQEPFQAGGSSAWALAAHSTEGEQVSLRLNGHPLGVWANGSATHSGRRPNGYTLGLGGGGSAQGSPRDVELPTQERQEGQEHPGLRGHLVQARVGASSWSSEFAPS

According to BindingDB's records for doi:10.1007/bf00175797 (Pharmakologisches Institut, Heidelberg, 1988):

Biological target: Adenosine receptor A2a (Rattus norvegicus, UniProt P30543)

Ki: 730 nM
Compound: CC(Cc1ccccc1)Nc1ncnc2c1ncn2C1OC(CO)C(O)C1O (stereo unspecified) [R-N6-(2-phenylisopropyl) adenosine]
